# Measurements reported in DBAASP.
# System: Staphylococcus aureus ATCC 12600
# Test: ≥ marks a high value that may be exact or a test limit, other limits are often not marked, values filed in µg/mL are converted to µM
structure (smiles),measurement,value
CC(C)C[C@H](NC(=O)[C@@H](N)C(C)C)C(=O)N[C@@H](CC(N)=O)C(=O)N[C@@H](CCC(=O)O)C(=O)N[C@@H](CC(N)=O)C(=O)N[C@@H](C)C(=O)N[C@@H](C)C(=O)N[C@@H](CCCN=C(N)N)C(=O)O [VLNENAAR],MIC,≥ 128 µM
